Experimental data reported in US20260384488A1, “MELANOCORTIN AND GLP-1 RECEPTOR AGONISTS AND METHODS OF USE” (published 2026).

By UniProt entry, the sequences of proteins in these tests, tags left out. Residues count along the entry.
UniProt P43220, 24-463 limits assumed: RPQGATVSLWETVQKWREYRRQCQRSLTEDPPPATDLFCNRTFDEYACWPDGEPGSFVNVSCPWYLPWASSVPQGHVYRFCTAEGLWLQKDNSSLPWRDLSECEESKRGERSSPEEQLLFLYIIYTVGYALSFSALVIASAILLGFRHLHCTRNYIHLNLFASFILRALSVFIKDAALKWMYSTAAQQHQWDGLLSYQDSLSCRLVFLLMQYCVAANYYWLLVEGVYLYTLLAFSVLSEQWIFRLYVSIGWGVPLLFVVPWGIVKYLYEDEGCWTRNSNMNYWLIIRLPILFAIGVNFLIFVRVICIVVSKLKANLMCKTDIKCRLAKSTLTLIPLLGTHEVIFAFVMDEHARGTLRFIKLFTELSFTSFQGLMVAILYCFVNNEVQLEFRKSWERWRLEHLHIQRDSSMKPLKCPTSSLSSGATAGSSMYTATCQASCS

Columns and labels:
[1] = Dose escalation experiment, food intake in diet-induced obese Sprague Dawley rats; details: subcutaneous, 60% HF diet
[2] = 11-day treatment experiment at stable daily dosing (10 nmol/kg/day) in diet-induced obese Sprague Dawley rats; details: 10 nmol/kg/day for eleven days, subcutaneous, 60% HF diet
human GLP-1R [3] = biological target: T1, human GLP-1R (Homo sapiens, UniProt P43220); assay: In vitro receptor agonism at hGLP-1R (cAMP FRET, H188 HEK293 cells); details: 20 min incubation
human GLP-1R [4] = biological target: T1, human GLP-1R; assay: Competitive binding assay at hGLP-1R (SPR); details: 0.1 nM-150 nM
[5] = 16-day treatment experiment with increasing doses in diet-induced obese Wistar rats; details: 5 nmol/kg/day 4 days, 10 nmol/kg/day 4 days, 25 nmol/kg/day 8 days, subcutaneous, 60% HF diet

In the case of “HsQGTFTSDLSKYLEEEAVREFIAWLKNGGPSYSMEHFRWGKPV-NH2”, the “reduction in food intake” value ([1]; 2 nmol/kg/day for 3 days) is reported as 54.7%, the “reduction in food intake” value ([1]; 5 nmol/kg/day for 3 days) is reported as 64.8% and the “reduction in food intake” value ([1]; 10 nmol/kg/day for 3 days) is reported as 62.9%. The “average reduction in food intake” value [2] was 40.9%, the “reduction in body weight” value [2] was 5.4% and the “EC50 (% change in FRET ratio tracking levels of cAMP)” value (human GLP-1R [3]) was 4.08 nM. The Kd (human GLP-1R [4]) was 9.9 nM, the “reduction in body weight relative to pre-treatment” value [5] was 4.7% and the “reduction in calorie intake” value [5] was greater than 30%.
